Measured values reported in patent publication US20230227547A1, “ANTIBODY-PAYLOAD CONJUGATES WITH ENHANCED DELIVERY DOMAIN AND USES THEREOF” (IPROGEN BIOTECH INC., priority 2019, published 2023).

Columns and labels:
Format in all cases: cell-based, human
BT474 cells = test: Delivery assay, Z-RFP fluorescence by FACS, BT474; details: increasing antibody concentrations (FIG. 9)
RT4V6 cells = test: Delivery assay, Z-RFP fluorescence by FACS, RT4V6; details: 100 nM, 4 hours (FIG. 4) or 4-100 nM, 3 hours (FIG. 28)
OVCAR3 cells = test: Delivery assay, Z-RFP fluorescence by FACS, OVCAR3; details: 100 nM antibody + 100 nM Z-RFP, 4 hours (FIG. 7)

## Trastuzumab [anti-HER2 mAb]
BT474 cells
  effect of LL37 conjugation on delivery of the mAb (in words): greatly amplifies the delivery
RT4V6 cells
  delivery (in words): poorly delivered
OVCAR3 cells
  delivery efficiency (in words): delivery efficiency is low
